Reference: ChEMBL document CHEMBL1134245, “Two novel and potent 3-[(o-methoxyphenyl)piperazinylethyl]-5-phenylthien” (Bioorg Med Chem Lett, 2001)
pKi: −log10 of the molar value.

By UniProt entry, the sequences of proteins in these tests, tags left out.
UniProt P35368, whole entry: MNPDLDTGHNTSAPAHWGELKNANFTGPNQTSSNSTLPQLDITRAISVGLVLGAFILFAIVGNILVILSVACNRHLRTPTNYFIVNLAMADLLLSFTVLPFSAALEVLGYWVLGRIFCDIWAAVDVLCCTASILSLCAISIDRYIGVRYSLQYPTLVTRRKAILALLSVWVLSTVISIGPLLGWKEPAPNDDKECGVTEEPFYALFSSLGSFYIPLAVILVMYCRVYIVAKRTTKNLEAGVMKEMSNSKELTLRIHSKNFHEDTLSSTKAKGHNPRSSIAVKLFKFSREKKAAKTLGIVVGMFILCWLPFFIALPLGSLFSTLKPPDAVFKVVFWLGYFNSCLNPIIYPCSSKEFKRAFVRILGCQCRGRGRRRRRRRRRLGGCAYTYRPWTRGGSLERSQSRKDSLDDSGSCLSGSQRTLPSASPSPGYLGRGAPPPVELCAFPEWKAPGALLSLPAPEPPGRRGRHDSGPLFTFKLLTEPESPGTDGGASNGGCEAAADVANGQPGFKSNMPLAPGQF

Target: Alpha-1B adrenergic receptor (Homo sapiens, UniProt P35368)
Experiment: Binding affinity towards human Alpha-1B adrenergic receptor

Row | pKi | SMILES
1 | 8.35 | COc1ccccc1N1CCN(CCn2c(=O)c3c(-c4ccccc4)csc3n(C)c2=O)CC1
2 | 6.78 | CC(CN1CCN(c2cc(F)c(F)cc2F)CC1)N1C(=O)CC2(CCCC2)CC1=O (single isomer, unassigned)
